## Apparent affinities of Ab-14 variants for a coronavirus HR2 peptide

The measurements come from Li et al. 2023 (doi:10.1038/s41467-023-39022-2) through the FLAb antibody collection.

The target is the same throughout: PDVDLGDISGINAS, from the HR2 region of SARS-CoV-2 spike.

Parent scFv Ab-14: VH joined to VL by the linker GGGGSGGGGSGGGGS. Changes lie in the light chain CDRs alone.
VH: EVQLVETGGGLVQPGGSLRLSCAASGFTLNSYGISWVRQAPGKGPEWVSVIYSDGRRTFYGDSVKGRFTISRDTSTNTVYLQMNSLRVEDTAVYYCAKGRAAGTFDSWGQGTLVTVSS
VL: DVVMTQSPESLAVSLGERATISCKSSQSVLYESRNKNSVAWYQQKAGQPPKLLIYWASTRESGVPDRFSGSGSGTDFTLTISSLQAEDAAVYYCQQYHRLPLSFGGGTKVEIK

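Phage display of a naive human antibody library on the peptide gave the parent. This is the validation round: designs drawn from the data on random variants, tested in the same kind of assay. Their group label is 14L_En_Gibbs (En: ensemble of fine-tuned language models; Gibbs: Gibbs sampling). Affinity was read by AlphaSeq, a pooled yeast mating assay with surface-displayed partners. After mating in shaken culture at 30 °C for 16 h, diploids were selected and their barcode pairs sequenced. Scores were corrected for input abundance and mapped to Kd with protein pairs of known affinity run in the same pool. The assay was run in six technical replicates.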

Variants are written as CDR1, CDR2 and CDR3 of the light chain (limits as in the source). Parent: KSSQSVLYESRNKNSVA, WASTRES, QQYHRLPLS. Numbers give log10(Kd / nM), so 0 is 1 nM and 3 is 1 µM. Smaller is tighter. Averages over replicates are reported, and they cover detected replicates only. "ND" marks a missing value. The strain was present, yet no cells mated with the target were sequenced in that replicate, which points to weak or no binding. Values of this round are not directly comparable with the first-round values of the same sequences. Background: pairings of all light chain designs with three empty control strains gave a value in 4% of cases (median 2.64, 5th percentile 1.59). Values in that range, when seen in few replicates, are hard to tell from nonspecific mating. For each scFv, signals with the empty controls are counted beside the result, with their mean in brackets. The authors averaged sequences with at least three values out of six and counted those with two or fewer as poor binders.

CDR-L1 | CDR-L2 | CDR-L3 | log10 Kd (nM) by replicate | mean log10 Kd (nM) | signal with controls
RVQIWSGHSDMHWKSIA | SASLRAS | QQYARLPLE | 1.63 1.26 1.05 0.99 1.68 1.40 | 1.33 | 3 of 18 (3.09)
AISFEMESPHNHSNNVA | SESKLCS | QQYFTLPLS | 0.93 0.59 0.64 0.85 1.07 1.37 | 0.91 | 0 of 18
HVKEDLNMGMKFQSSVA | SGAHREI | QQYYRLPLG | 0.21 0.65 0.16 0.85 0.47 -0.10 | 0.37 | 0 of 18
HMMMYTDMQQNIQCGVA | DATTRNT | QQYQRLPLS | 1.31 1.18 1.19 0.76 1.19 0.86 | 1.08 | 0 of 18
VMFGGLNWGNIEHQAIA | NVDMREK | QQYHRLPLQ | 1.96 2.48 2.19 ND 2.37 3.47 | 2.49 | 0 of 18
QMYPFGNAKGEGRNNVA | HVSTRAL | QQYFRLPLV | 0.78 0.38 0.45 1.18 0.59 0.94 | 0.72 | 0 of 18
QFQFEDVQYTVNEQAIA | EENQRMQ | QQYFRLPLG | 0.64 1.49 0.38 0.44 1.60 1.36 | 0.98 | 0 of 18
KFMTSGEYQMHEQNNIA | QGNIKFV | QQYFRLPIS | 1.30 1.18 0.46 1.05 0.99 1.25 | 1.04 | 2 of 18 (2.09)
HLSLPWQLGHPSTNAVA | NMSVLMT | QQYSRLPLS | 0.06 0.19 -0.02 -0.02 -0.17 0.20 | 0.04 | 1 of 18 (4.17)
KIELDLTRYNAGGANIA | HEVMRAQ | QQYSHLPLI | 0.58 0.22 0.25 0.23 0.27 0.62 | 0.36 | 1 of 18 (3.46)
KINGVLYDESIDMQAVA | QENITVL | QQYFHLPLS | 1.64 0.75 1.02 1.35 0.58 1.23 | 1.09 | 1 of 18 (1.26)
TLVGNIQGGGIMIKSIA | DNVQRAN | QQYYRLPLS | 0.61 1.27 0.57 0.97 0.49 0.78 | 0.78 | 1 of 18 (2.76)
KLRLHNLMFYQNENSIA | GVSNRAY | QQYYHLPLN | 1.05 0.47 1.13 0.68 1.01 1.06 | 0.90 | 5 of 18 (2.63)
KFSASLYRDGSEASSVA | EAEEVRQ | QHYNRLPLG | ND ND ND ND ND ND | ND | 0 of 18
GILSQMDGPTEYKENIA | NGTERLR | QQYQRLPLT | 1.66 1.30 -0.06 0.04 0.21 -0.25 | 0.49 | 0 of 18
SIFYGQERDIKHESSIA | NGMARVK | QQYHRLPLS | 0.41 0.40 0.07 0.19 0.11 0.30 | 0.25 | 0 of 18
SSNGNLRMGERNKNHVA | STDVRES | QQYSRLPLT | ND 0.87 0.37 1.04 ND 1.43 | 0.93 | 0 of 18
RMEWHNSGATEAKNSVA | GVEHRAN | QQYDRLPLE | 0.47 0.58 0.60 0.21 0.48 0.67 | 0.50 | 3 of 18 (3.44)
KFNDAWPGDIQNNQNIA | SADTLNH | QQYAKLPLS | 0.68 0.97 0.69 0.52 0.91 0.75 | 0.76 | 1 of 18 (2.92)
NLNTYYYGGFLNTDNIA | HGNMVEA | QQYDRLPLS | 0.46 0.38 0.56 0.58 0.46 0.78 | 0.54 | 2 of 18 (2.63)
QLRDAQWAEGMNIQSIA | ENEVSKD | QQYNRLPLS | ND ND ND 1.91 ND ND | 1.91 | 2 of 18 (2.21)
KIWGSPLEGQSELQAVA | QAEVLRQ | QQYNMLPLS | ND ND ND ND ND ND | ND | 0 of 18
KIQHLHYFESEGEWSVA | DANTSVL | QDYFRLPLS | 1.35 ND 1.74 ND 3.27 ND | 2.12 | 2 of 18 (2.29)
KLDLENGEEDKKGQNIA | EASTAGD | QSYWRLPLS | ND 2.04 1.17 ND 1.34 1.87 | 1.61 | 1 of 18 (1.46)
KFKELFNMWARAHGNVA | DATERNV | QQYSRLPIS | 1.33 0.39 1.11 1.25 1.08 0.61 | 0.96 | 0 of 18
KFMYSLEYQMHEQNNIA | HGEISTV | QQYSRLPIY | ND ND ND ND ND 1.20 | 1.20 | 0 of 18
KVQYQLANSEAHTNPVA | DASVVCA | QQYDRLPLG | 1.90 1.83 1.46 2.70 2.45 3.92 | 2.38 | 3 of 18 (3.06)
SVRHPFQGENGMRGSVA | NATIRDQ | QQYFRLPLF | 0.04 -0.11 -0.15 -0.28 -0.33 0.32 | -0.09 | 2 of 18 (3.03)
QLAVDRLQEYKMGDAIA | GKTTRED | QQYARLPLS | 0.85 0.38 0.37 0.46 0.50 0.66 | 0.54 | 1 of 18 (2.83)
YIAENSDNLYQNLSSVA | ETNQVRQ | QQYHLLPLA | 2.00 2.79 ND ND 2.48 ND | 2.42 | 1 of 18 (3.03)
MLDEYQMYEAANDAAIA | DANDVMP | QQYYSLPLS | 2.06 0.83 1.00 1.42 1.56 2.40 | 1.54 | 0 of 18
KIEQILFPYGNSWHSVA | NANTLLA | QQYYMLPLM | 1.37 1.10 1.05 1.48 1.15 1.22 | 1.23 | 1 of 18 (1.95)
KVEEEGDVIARIDNSVA | EMSMVLD | QQYHRLPLA | ND ND 0.82 ND ND ND | 0.82 | 0 of 18